Earlier results on one compound are cited in patent US6861524B2, “Acyl and sulfonyl derivatives of 6,9-disubstituted 2-(trans-1,4-diaminocyclohexyl)-purines and their use as antiproliferative agents” (Aventis Pharmaceuticals Inc., priority 2000, dated 2005).

The test system of the data set is herpes simplex virus. As to conditions: Schang et al. 1998; cited from earlier work.

Turning to `CCC(CO)Nc1nc(NCc2ccccc2)c2ncn(C(C)C)c2n1` (stereo not shown) [roscovitine, 2-(1-ethyl-2-hydroxyethylamino)-6-benzylamino-9-isopropylpurine], the “replication of herpes simplex virus” value was “inhibited the replication”.
